According to PMC3253046 (Chinese Medicine, 2011):

Assay: Partition coefficients (octanol/aqueous)
Type: physicochemical
Conditions: read-out: partition coefficient D (LogD, octanol/aqueous)

Q: Which logD at 24 h (pH 6.8, 24 hours equilibration) does the source give for `O=c1c(-c2ccc(O)cc2)coc2c([C@@H]3O[C@H](CO)[C@@H](O)[C@H](O)[C@H]3O)c(O)ccc12` [Puerarin, puerarin] here?
A: Its logD at 24 h is -0.42 ± 0.15.

Q: And the logD at 24 h (pH 7.4, pH7.4, 24 hours equilibration)?
A: The logD at 24 h was 0.06 ± 0.02.

Where two headings read alike, the source gives them in different places.
